From paper PMC2577625 (2008)

T1: gp100 peptide on HLA-A*02:01 (human)
T1 peptide: KTWGQYWQV

B1: Patient 2 clone (TCR)
alpha TRAV12.1 CDR3: VVNMNSNYQLI
beta TRBV15 CDR3: ATSQEASFTDTQY
B2: Patient 5 clone (TCR)
alpha TRAV8.1 CDR3: AVNGDDKII
beta TRBV7.6 CDR3: ASSLGGGQDTQY
B3: Patient 7 clone (TCR)
alpha TRAV5 CDR3: AENPEGNDMR
beta TRBV11.2 CDR3: ASSPGGGGEQF

Target: T1, gp100 peptide on HLA-A*02:01
Assay: cytokine release

Binder	binding result
B1	recognises
B2	recognises
B3	recognises
